Measured values: article PMC9463526, “Simultaneous determination of LY3214996, abemaciclib, and M2 and M20 metabolites in human plasma, cerebrospinal fluid, and brain tumor by LC-MS/MS” (Journal of Pharmaceutical Analysis, 2022)

Test: Analyte stability in brain homogenate
Assay type: physicochemical, human
Details: 39 days
Description: The stability of the analytes was studied under various storage and processing conditions. […] Short- and long-term stability studies of all analytes were conducted in human blank plasma and brain homogenate under several storage conditions. Analyte stability in biological matrices was analyzed using freshly prepared calibration standards and QC samples. The percentage difference between the stability and freshly processed QC was also assessed. Re-injection reproducibility was evaluated within the sample stability period in the autosampler. Analytes were considered stable if the accuracy at each level was ±15.0% of the nominal value. Additionally, the difference from corresponding comparison QC samples must be within ±15.0%.

SMILES: CCN1CCN(Cc2ccc(Nc3ncc(F)c(-c4cc(F)c5nc(C)n(C(C)C)c5c4)n3)nc2)CC1 [Abemaciclib]
- Long-term stability (−20 °C), Accuracy (HQC 400.0 nM): 108.7%
- Long-term stability (−20 °C), Accuracy (LQC 0.6 nM): 103.1%
